Test results taken from DBAASP.

Tests used:
[1] = test system: Staphylococcus aureus ATCC 12600; test: ≥ marks a high value that may be exact or a test limit, other limits are often not marked, values filed in µg/mL are converted to µM
[2] = test system: Escherichia coli K-12; test: as above

SMILES | MIC [1] [µM] | MIC [2] [µM]
CC[C@H](C)[C@H](NC(=O)[C@@H]1CCCN1C(=O)[C@H](CCCCN)NC(=O)[C@H](CC(C)C)NC(=O)[C@H](C)NC(=O)[C@@H](NC(=O)[C@@H](NC(=O)[C@H](CC(C)C)NC(=O)[C@@H](NC(=O)[C@H](CCCCN)NC(=O)[C@H](CCCCN)NC(=O)[C@H](C)NC(=O)[C@H](C)NC(=O)[C@H](CO)NC(=O)[C@@H](NC(=O)[C@H](CC(C)C)NC(=O)[C@H](CCCCN)NC(=O)[C@H](CCCCN)NC(=O)[C@H](CC(C)C)NC(=O)[C@H](Cc1ccccc1)NC(=O)[C@H](CCCCN)NC(=O)[C@H](CCCCN)NC(=O)[C@H](Cc1c[nH]c2ccccc12)NC(=O)[C@@H](N)CCCCN)[C@@H](C)O)C(C)C)[C@@H](C)O)[C@@H](C)O)C(=O)N[C@@H](CO)C(=O)N[C@@H](CO)C(=O)O [KWKKFLKKLTSAAKKVLTTALKPISS] | 8 (≈ 23.3 µg/mL) | 2 (≈ 5.83 µg/mL)
CC(C)C[C@H](NC(=O)[C@H](C)NC(=O)[C@@H](N)C(C)C)C(=O)N[C@@H](CC(N)=O)C(=O)N[C@@H](CCC(=O)O)C(=O)N[C@@H](CC(N)=O)C(=O)N[C@@H](CC(C)C)C(=O)N[C@@H](CC(C)C)C(=O)N[C@@H](CCCN=C(N)N)C(=O)O [VALNENLLR] | ≥ 128 | 

≈ marks a conversion by molar mass, not a printed value.
